This is an account of results in patent US7101853B2 (Amylin Pharmaceuticals, Inc., priority 1997, dated 2006).

One assay relates to treated test animals. Briefly: Amylin activity in vivo in treated test animals.
Conditions: not given
On to `CC[C@H](C)[C@H](NC(=O)[C@@H]1CCCN1C(=O)CNC(=O)[C@H](Cc1ccccc1)NC(=O)[C@H](CC(N)=O)NC(=O)[C@H](CC(N)=O)NC(=O)[C@H](CO)NC(=O)[C@H](CO)NC(=O)[C@H](CCCNC(=N)N)NC(=O)[C@@H](NC(=O)[C@H](CC(C)C)NC(=O)[C@H](Cc1ccccc1)NC(=O)[C@H](CC(N)=O)NC(=O)[C@H](C)NC(=O)[C@H](CC(C)C)NC(=O)[C@H](CCCNC(=N)N)NC(=O)[C@H](CCC(N)=O)NC(=O)[C@@H](NC(=O)[C@H](C)NC(=O)[C@@H]1CSSC[C@H](NC(=O)[C@@H](N)CCCCN)C(=O)N[C@@H](CC(N)=O)C(=O)N[C@@H]([C@@H](C)O)C(=O)N[C@@H](C)C(=O)N[C@@H]([C@@H](C)O)C(=O)N1)[C@@H](C)O)C(C)C)C(=O)N[C@@H](CC(C)C)C(=O)N1CCC[C@H]1C(=O)N[C@@H](CO)C(=O)N[C@H](C(=O)N[C@@H](CC(N)=O)C(=O)N[C@H](C(=O)NCC(=O)N[C@@H](CO)C(=O)N[C@@H](CC(N)=O)C(=O)N[C@H](C(=O)N[C@@H](Cc1ccc(O)cc1)C(N)=O)[C@@H](C)O)C(C)C)[C@@H](C)O` [^18Arg^25,28Pro-h-Amylin], for which the “Amylin activity in vivo” value was “show amylin activity in vivo”.
Take `CC[C@H](C)[C@H](NC(=O)[C@H](C)NC(=O)CNC(=O)[C@H](Cc1ccccc1)NC(=O)[C@H](CC(N)=O)NC(=O)[C@H](CC(N)=O)NC(=O)[C@H](CO)NC(=O)[C@H](CO)NC(=O)[C@H](Cc1c[nH]cn1)NC(=O)[C@@H](NC(=O)[C@H](CC(C)C)NC(=O)[C@H](Cc1ccccc1)NC(=O)[C@H](CC(N)=O)NC(=O)[C@H](C)NC(=O)[C@H](CC(C)C)NC(=O)[C@H](CCCNC(=N)N)NC(=O)[C@H](CCC(N)=O)NC(=O)[C@@H](NC(=O)[C@H](C)NC(=O)[C@@H]1CSSC[C@H](NC(=O)[C@@H](N)CCCCN)C(=O)N[C@@H](CC(N)=O)C(=O)N[C@@H]([C@@H](C)O)C(=O)N[C@@H](C)C(=O)N[C@@H]([C@@H](C)O)C(=O)N1)[C@@H](C)O)C(C)C)C(=O)N[C@@H](CC(C)C)C(=O)N1CCC[C@H]1C(=O)N[C@@H](CO)C(=O)N[C@H](C(=O)N[C@@H](CC(N)=O)C(=O)N[C@H](C(=O)NCC(=O)N[C@@H](CO)C(=O)N[C@@H](CC(N)=O)C(=O)N[C@H](C(=O)N[C@@H](Cc1ccc(O)cc1)C(N)=O)[C@@H](C)O)C(C)C)[C@@H](C)O` [^28Pro-h-Amylin]: the “Amylin activity in vivo” value is on record as “show amylin activity in vivo”.
Regarding `CC[C@H](C)[C@H](NC(=O)[C@@H]1CCCN1C(=O)CNC(=O)[C@H](Cc1ccccc1)NC(=O)[C@H](CC(N)=O)NC(=O)[C@H](CC(N)=O)NC(=O)[C@H](CO)NC(=O)[C@H](CO)NC(=O)[C@H](CCCNC(=N)N)NC(=O)[C@@H](NC(=O)[C@H](CC(C)C)NC(=O)[C@H](Cc1ccccc1)NC(=O)[C@H](CC(N)=O)NC(=O)[C@H](C)NC(=O)[C@H](CC(C)C)NC(=O)[C@H](CCCNC(=N)N)NC(=O)[C@H](CCC(N)=O)NC(=O)[C@@H](NC(=O)[C@H](C)NC(=O)[C@@H]1CSSC[C@H](N)C(=O)N[C@@H](CC(N)=O)C(=O)N[C@@H]([C@@H](C)O)C(=O)N[C@@H](C)C(=O)N[C@@H]([C@@H](C)O)C(=O)N1)[C@@H](C)O)C(C)C)C(=O)N[C@@H](CC(C)C)C(=O)N1CCC[C@H]1C(=O)N[C@@H](CO)C(=O)N[C@H](C(=O)N[C@@H](CC(N)=O)C(=O)N[C@H](C(=O)NCC(=O)N[C@@H](CO)C(=O)N[C@@H](CC(N)=O)C(=O)N[C@H](C(=O)N[C@@H](Cc1ccc(O)cc1)C(N)=O)[C@@H](C)O)C(C)C)[C@@H](C)O` [des-^1Lys^18Arg^25,28Pro-h-Amylin], the “Amylin activity in vivo” value is reported as “show amylin activity in vivo”.

The target of the next assay is T1, amylin receptors (Rattus norvegicus, UniProt P32214).
T1 construct: This basal forebrain tissue, containing the nucleus accumbens and surrounding regions, was weighed and homogenized; from tissue; host or cells: rat basal forebrain (nucleus accumbens and surrounding regions) membranes
T1 sequence (P32214 25-516): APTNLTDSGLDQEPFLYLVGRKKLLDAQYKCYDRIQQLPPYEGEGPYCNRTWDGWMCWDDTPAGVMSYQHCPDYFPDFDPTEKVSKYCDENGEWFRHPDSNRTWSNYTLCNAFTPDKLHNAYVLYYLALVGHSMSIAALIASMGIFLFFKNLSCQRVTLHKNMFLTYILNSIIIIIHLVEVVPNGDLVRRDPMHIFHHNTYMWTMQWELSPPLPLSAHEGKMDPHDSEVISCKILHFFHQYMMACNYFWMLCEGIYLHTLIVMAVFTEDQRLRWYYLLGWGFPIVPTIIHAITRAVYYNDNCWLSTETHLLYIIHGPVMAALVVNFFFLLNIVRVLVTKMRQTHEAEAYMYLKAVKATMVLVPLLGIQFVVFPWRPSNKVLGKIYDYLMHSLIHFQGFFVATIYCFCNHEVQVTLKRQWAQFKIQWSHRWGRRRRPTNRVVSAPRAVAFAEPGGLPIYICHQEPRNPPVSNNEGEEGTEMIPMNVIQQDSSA
T1 sequence (Q9JJ74 27-148 partner): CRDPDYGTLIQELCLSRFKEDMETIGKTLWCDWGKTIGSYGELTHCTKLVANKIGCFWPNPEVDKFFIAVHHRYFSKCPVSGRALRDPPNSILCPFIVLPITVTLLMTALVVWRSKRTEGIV
Briefly: Receptor binding assay (competition with 125I Bolton-Hunter rat amylin, basal forebrain membranes). The note with it: 125I-amylin 12-16 pM. As to the method: The receptor binding assay is described in U.S. Pat. No. 5,264,372, issued Nov. 23, 1993, the disclosure of which is incorporated herein by reference. […] A preferred source of the membrane preparations used in the assay is the basal forebrain which comprises membranes from the nucleus accumbens and surrounding regions. […] Competition curves, wherein the amount bound (B) is plotted as a function of the log of the concentration of ligand are analyzed by computer, using analyses by nonlinear regression to a 4-parameter logistic equation (Inplot program; GraphPAD Software, San Diego, Calif.) or the ALLFIT program of DeLean et. al. (ALLFIT, Version 2.7 (NIH, Bethesda, Md. 20892)). […] Specific activities at time of use ranged from 1950 to 2000 Ci/mmol. Unlabeled peptides were obtained from BACHEM Inc. (Torrance, Calif.) and Peninsula Laboratories (Belmont, Calif.). Male Sprague-Dawley rats (200-250) grams were sacrificed by decapitation. Brains were removed to cold phosphate-buffered saline (PBS). From the ventral surface, cuts were made rostral to the hypothalamus, bounded laterally by the olfactory tracts and extending at a 45° angle medially from these tracts. This basal forebrain tissue, containing the nucleus accumbens and surrounding regions, was weighed and homogenized in ice-cold 20 mM HEPES buffer (20 mM HEPES acid, pH adjusted to 7.4 with NaOH at 23° C.). Membranes were washed three times in fresh buffer by centrifugation for 15 minutes at 48,000× g. The final membrane pellet was resuspended in 20 mM HEPES buffer containing 0.2 mM phenylmethylsulfonyl fluoride (PMSF). […] Solutions were incubated for 60 minutes at 23° C. […] Filters were removed and radioactivity assessed in a gamma-counter at a counting efficiency of 77 %. Competition curves were generated by measuring binding in the presence of 10^−12 to 10^−6 M unlabeled test compound and were analyzed by nonlinear regression using a 4-parameter logistic equation (Inplot program; GraphPAD Software, San Diego).
In general, IC50 refers to the concentration needed to halve the response being measured. Read a low IC50 as greater potency in that assay. `CC[C@H](C)[C@H](NC(=O)[C@@H]1CCCN1C(=O)CNC(=O)[C@H](Cc1ccccc1)NC(=O)[C@H](CC(N)=O)NC(=O)[C@H](CC(N)=O)NC(=O)[C@H](CO)NC(=O)[C@H](CO)NC(=O)[C@H](CCCNC(=N)N)NC(=O)[C@@H](NC(=O)[C@H](CC(C)C)NC(=O)[C@H](Cc1ccccc1)NC(=O)[C@H](CC(N)=O)NC(=O)[C@H](C)NC(=O)[C@H](CC(C)C)NC(=O)[C@H](CCCNC(=N)N)NC(=O)[C@H](CCC(N)=O)NC(=O)[C@@H](NC(=O)[C@H](C)NC(=O)[C@@H]1CSSC[C@H](N)C(=O)N[C@@H](CC(N)=O)C(=O)N[C@@H]([C@@H](C)O)C(=O)N[C@@H](C)C(=O)N[C@@H]([C@@H](C)O)C(=O)N1)[C@@H](C)O)C(C)C)C(=O)N[C@@H](CC(C)C)C(=O)N1CCC[C@H]1C(=O)N1CCC[C@H]1C(=O)N[C@H](C(=O)N[C@@H](CC(N)=O)C(=O)N[C@H](C(=O)NCC(=O)N[C@@H](CO)C(=O)N[C@@H](CC(N)=O)C(=O)N[C@H](C(=O)N[C@@H](Cc1ccc(O)cc1)C(N)=O)[C@@H](C)O)C(C)C)[C@@H](C)O` [des-^1Lys^18Arg^25,28,29Pro-h-Amylin] yielded an IC50 of 0.021 nM.
Consider `CC[C@H](C)[C@H](NC(=O)[C@@H]1CCCN1C(=O)CNC(=O)[C@H](Cc1ccccc1)NC(=O)[C@H](CC(N)=O)NC(=O)[C@H](CC(N)=O)NC(=O)[C@H](CO)NC(=O)[C@H](CO)NC(=O)[C@H](CCCNC(=N)N)NC(=O)[C@@H](NC(=O)[C@H](CC(C)C)NC(=O)[C@H](Cc1ccccc1)NC(=O)[C@H](CC(N)=O)NC(=O)[C@H](C)NC(=O)[C@H](CC(C)C)NC(=O)[C@H](CCCNC(=N)N)NC(=O)[C@H](CCC(N)=O)NC(=O)[C@@H](NC(=O)[C@H](C)NC(=O)[C@@H]1CSSC[C@H](N)C(=O)N[C@@H](CC(N)=O)C(=O)N[C@@H]([C@@H](C)O)C(=O)N[C@@H](C)C(=O)N[C@@H]([C@@H](C)O)C(=O)N1)[C@@H](C)O)C(C)C)C(=O)N[C@@H](CC(C)C)C(=O)N1CCC[C@H]1C(=O)N[C@@H](CO)C(=O)N[C@H](C(=O)N[C@@H](CC(N)=O)C(=O)N[C@H](C(=O)NCC(=O)N[C@@H](CO)C(=O)N[C@@H](CC(N)=O)C(=O)N[C@H](C(=O)N[C@@H](Cc1ccc(O)cc1)C(N)=O)[C@@H](C)O)C(C)C)[C@@H](C)O` [des-^1Lys^18Arg^25,28Pro-h-Amylin], for which the IC50 turned out to be 0.082 nM.
`CC[C@H](C)[C@H](NC(=O)[C@@H]1CCCN1C(=O)CNC(=O)[C@H](Cc1ccccc1)NC(=O)[C@H](CC(N)=O)NC(=O)[C@H](CC(N)=O)NC(=O)[C@H](CO)NC(=O)[C@H](CO)NC(=O)[C@H](Cc1c[nH]cn1)NC(=O)[C@@H](NC(=O)[C@H](CC(C)C)NC(=O)[C@H](Cc1ccccc1)NC(=O)[C@H](CC(N)=O)NC(=O)[C@H](C)NC(=O)[C@H](CC(C)C)NC(=O)[C@H](CCCNC(=N)N)NC(=O)[C@H](CCC(N)=O)NC(=O)[C@@H](NC(=O)[C@H](C)NC(=O)[C@@H]1CSSC[C@H](N)C(=O)N[C@@H](CC(N)=O)C(=O)N[C@@H]([C@@H](C)O)C(=O)N[C@@H](C)C(=O)N[C@@H]([C@@H](C)O)C(=O)N1)[C@@H](C)O)C(C)C)C(=O)N[C@@H](CC(C)C)C(=O)N1CCC[C@H]1C(=O)N1CCC[C@H]1C(=O)N[C@H](C(=O)N[C@@H](CC(N)=O)C(=O)N[C@H](C(=O)NCC(=O)N[C@@H](CO)C(=O)N[C@@H](CC(N)=O)C(=O)N[C@H](C(=O)N[C@@H](Cc1ccc(O)cc1)C(N)=O)[C@@H](C)O)C(C)C)[C@@H](C)O` [des-^1Lys^25,28,29Pro-h-Amylin] displayed an IC50 of 0.014 nM.
